The source of these data is PubChem BioAssay AID1446 (The Scripps Research Institute Molecular Screening Center, 2008).

By inhibition is commonly meant the drop in the measured response relative to a control, in per cent.

The entries are a selection whose mix differs from that of the whole data set. Some tests of the compounds listed are not included; inactive here does not mean inactive elsewhere. Calls of active or inactive are those of the source.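 The calls were made as follows: active = inhibition above the campaign mean plus 3 SD over all tested compounds (cut at about 24% in these data); inactive = the rest.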

A short description of the experiment: viability loss in Ba/F3 EpoR-JAK2V617F cells – cell-based, luminescence, JAK2V617F inhibitor project, primary screen (AID 1446).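 Also: cytokine-independent growth of Ba/F3 cells driven by EpoR plus mutant JAK2; 0% = DMSO-treated cells and 100% = JAK inhibitor I control.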 The following applies: ATP luminescence, at 5.6 µM, hits give high values.
`O=C(OC1CN2CCC1CC2)C(CO)(c1ccccc1)c1ccccc1` (stereo unspecified): the inhibition was inactive: 2.36%. Under `COc1ccc(Br)c(C(=O)NCC2(N3CCCCC3)CCCCC2)c1` stands inactive: -3.2%; under `CN(C)c1cccc(C(=O)NCC2(N(C)C)CCCCC2)c1`, inactive: -1.52%. As to `COc1cccc(C(=O)NCC2(N3CCCCC3)CCCCC2)c1`, the inhibition is inactive: -0.65%. Turning to `Cc1ccccc1C(=O)NCC1(N2CCCCC2)CCCCC1`, the inhibition is inactive: 4.64%. For `CN(C)C1CCCC1OC(=O)C(O)(c1ccccc1)c1ccccc1` (stereo unspecified), the inhibition is inactive: -3.18%.

On to `C=CCN1CCN(CCOC(=O)C(O)(c2ccccc2)c2ccccc2)CC1`, for which the inhibition was inactive: -2.28%. As to `CCN1CCCC(OC(=O)C2(O)c3ccccc3C=Cc3ccccc32)C1` (stereo unspecified), the inhibition is inactive: -2.05%. Under `O=C(NCC1(N2CCCCC2)CCCCC1)c1cc([N+](=O)[O-])ccc1Cl` stands inactive: 1.1%; under `CCN(CC)CC(C)C(C)OC(=O)C(O)(c1ccccc1)c1ccccc1` (stereo unspecified), inactive: -4.93%; under `CC(C)N1C(=O)CC2(CCN(CCOC(=O)C(O)(c3ccccc3)c3ccccc3)CC2)C1=O`, inactive: -2.46%.
